# Source: publication PMC3445454, “Broad and Cross-Clade CD4^+ T-Cell Responses Elicited by a DNA Vaccine Encoding Highly Conserved and Promiscuous HIV-1 M-Group Consensus Peptides” (PLoS ONE, 2012)
# Protein sequences, listed by entry. Tags and fused reporters are not part of them. Residues count along the entry.
# UniProt P01920, 33-261: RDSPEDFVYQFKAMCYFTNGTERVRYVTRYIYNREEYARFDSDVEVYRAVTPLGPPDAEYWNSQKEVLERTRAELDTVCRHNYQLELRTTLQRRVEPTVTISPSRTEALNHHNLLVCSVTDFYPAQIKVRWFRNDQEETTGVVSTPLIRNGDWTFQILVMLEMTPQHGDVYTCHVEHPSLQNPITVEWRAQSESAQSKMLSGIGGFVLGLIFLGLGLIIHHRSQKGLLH
# Molecular target: HLA-DQ DQA1*05:01/DQB1*03:01 (Homo sapiens, UniProt P01909+P01920)
# Test: biochemical
row,SMILES,IC50 [µM]
1,CSCC[C@H](NC(=O)[C@H](CCCCN)NC(=O)[C@H](C)NC(=O)[C@H](Cc1ccc(O)cc1)NC(=O)[C@H](CCCCN)NC(=O)CNC(=O)[C@@H](NC(=O)[C@H](CCCCN)NC(=O)[C@H](CC(C)C)NC(=O)[C@H](CC(N)=O)NC(=O)[C@H](CCCCN)NC(=O)[C@H](Cc1ccccc1)NC(=O)[C@@H]1CCCN1C(=O)[C@H](CCC(=O)O)NC(=O)[C@@H](N)CCC(N)=O)[C@@H](C)O)C(N)=O [RT(343-357)],24.4
2,CSCC[C@H](NC(=O)[C@H](CCCCN)NC(=O)[C@H](C)NC(=O)[C@@H](N)Cc1ccc(O)cc1)C(=O)N[C@@H](CCCNC(=N)N)C(=O)N[C@@H](CO)C(=O)N[C@@H](C)C(=O)N[C@@H](Cc1c[nH]cn1)C(=O)N[C@H](C(=O)N[C@@H](CC(N)=O)C(=O)N[C@@H](CC(=O)O)C(=O)N[C@H](C(=O)N[C@@H](CCCCN)C(=O)N[C@@H](CCC(N)=O)C(=O)N[C@@H](CC(C)C)C(N)=O)C(C)C)[C@@H](C)O [RT(354-368)],0.463
3,CC[C@H](C)[C@H](NC(=O)[C@H](CCCCN)NC(=O)[C@H](CCC(N)=O)NC(=O)[C@@H](NC(=O)[C@H](C)NC(=O)[C@H](CCC(=O)O)NC(=O)[C@@H](N)[C@@H](C)O)C(C)C)C(=O)N[C@@H](C)C(=O)N[C@H](C(=O)N[C@@H](CCC(=O)O)C(=O)N[C@@H](CO)C(=O)N[C@H](C(=O)N[C@H](C(=O)N[C@H](C(=O)N[C@@H](Cc1c[nH]c2ccccc12)C(=O)NCC(=O)N[C@@H](CCCCN)C(=O)N[C@H](C(=O)N1CCC[C@H]1C(=O)N[C@@H](CCCCN)C(=O)N[C@@H](Cc1ccccc1)C(=O)N[C@@H](CCCNC(=N)N)C(=O)N[C@@H](CC(C)C)C(N)=O)[C@@H](C)O)[C@@H](C)CC)C(C)C)[C@@H](C)CC)[C@@H](C)O [RT(369-391)],9.07
4,CC(C)C[C@H](NC(=O)[C@H](CCCCN)NC(=O)[C@@H](NC(=O)[C@H](CC(C)C)NC(=O)[C@@H]1CCCN1C(=O)[C@@H]1CCCN1C(=O)[C@@H](NC(=O)[C@H](CC(N)=O)NC(=O)[C@@H](NC(=O)[C@H](Cc1ccccc1)NC(=O)[C@H](CCC(=O)O)NC(=O)[C@H](Cc1c[nH]c2ccccc12)NC(=O)[C@@H](N)CCC(=O)O)C(C)C)[C@@H](C)O)C(C)C)C(=O)N[C@@H](Cc1c[nH]c2ccccc12)C(=O)N[C@@H](Cc1ccc(O)cc1)C(N)=O [RT(413-427)],25.5
5,CC[C@H](C)[C@H](NC(=O)[C@@H]1CCCN1C(=O)[C@H](CCC(=O)O)NC(=O)[C@@H](N)CCCCN)C(=O)N[C@H](C(=O)NCC(=O)N[C@@H](C)C(=O)N[C@@H](CCC(=O)O)C(=O)N[C@H](C(=O)N[C@@H](Cc1ccccc1)C(=O)N[C@@H](Cc1ccc(O)cc1)C(=O)N[C@H](C(=O)N[C@@H](CC(=O)O)C(=O)NCC(=O)N[C@@H](C)C(N)=O)C(C)C)[C@@H](C)O)C(C)C [RT(431-445)],0.249
6,CC[C@H](C)[C@H](NC(=O)CNC(=O)[C@H](CCCCN)NC(=O)[C@H](Cc1c[nH]cn1)NC(=O)[C@H](C)NC(=O)[C@@H]1CCCN1C(=O)[C@@H](NC(=O)[C@H](Cc1c[nH]c2ccccc12)NC(=O)[C@H](CO)NC(=O)[C@H](CC(C)C)NC(=O)[C@H](Cc1ccc(O)cc1)NC(=O)[C@@H](NC(=O)[C@H](CCCCN)NC(=O)[C@H](CCC(=O)O)NC(=O)[C@@H](N)CCCCN)C(C)C)C(C)C)C(=O)NCC(=O)NCC(=O)N[C@@H](CC(N)=O)C(=O)N[C@@H](CCC(=O)O)C(N)=O [RT(528-546)],0.681
7,CC[C@H](C)[C@H](NC(=O)[C@H](Cc1ccc(O)cc1)NC(=O)CNC(=O)[C@H](CO)NC(=O)[C@H](C)NC(=O)[C@@H](NC(=O)[C@H](Cc1c[nH]cn1)NC(=O)[C@@H](NC(=O)[C@H](C)NC(=O)[C@@H](NC(=O)[C@H](CC(C)C)NC(=O)[C@@H](NC(=O)[C@@H](NC(=O)[C@H](CCCCN)NC(=O)CNC(=O)[C@@H](N)CCC(=O)O)[C@@H](C)CC)[C@@H](C)CC)C(C)C)C(C)C)C(C)C)C(=O)N[C@@H](CCC(=O)O)C(N)=O [integrase(69-85)],3.84
8,CC[C@H](C)[C@H](NC(=O)[C@@H](NC(=O)[C@H](CCCCN)NC(=O)[C@@H](NC(=O)[C@@H]1CCCN1C(=O)[C@H](Cc1c[nH]c2ccccc12)NC(=O)[C@H](CCCNC(=N)N)NC(=O)CNC(=O)[C@H](C)NC(=O)[C@H](CC(C)C)NC(=O)[C@H](CCCCN)NC(=O)[C@H](CC(C)C)NC(=O)[C@@H](NC(=O)[C@H](Cc1ccccc1)NC(=O)[C@H](Cc1ccc(O)cc1)NC(=O)[C@H](C)NC(=O)[C@@H](NC(=O)[C@@H](N)CCC(=O)O)[C@@H](C)O)[C@@H](C)CC)C(C)C)C(C)C)C(N)=O [integrase(96-113)],7.52
9,CC[C@H](C)[C@H](NC(=O)[C@H](CCCCN)NC(=O)[C@@H](NC(=O)[C@@H](NC(=O)[C@@H](N)CCC(N)=O)[C@@H](C)CC)[C@@H](C)O)C(=O)N[C@@H](CCC(N)=O)C(=O)N[C@@H](CC(N)=O)C(=O)N[C@@H](Cc1ccccc1)C(=O)N[C@@H](CCCNC(=N)N)C(=O)N[C@H](C(=O)N[C@@H](Cc1ccc(O)cc1)C(=O)N[C@@H](Cc1ccc(O)cc1)C(=O)N[C@@H](CCCNC(=N)N)C(=O)N[C@@H](CC(=O)O)C(=O)N[C@@H](CO)C(=O)N[C@@H](CCCNC(=N)N)C(=O)N[C@@H](CC(=O)O)C(=O)N1CCC[C@H]1C(=O)N[C@H](C(=O)N[C@@H](Cc1c[nH]c2ccccc12)C(N)=O)[C@@H](C)CC)C(C)C [integrase(216-235)],5.99
10,CC[C@H](C)[C@H](NC(=O)[C@@H](NC(=O)[C@H](CCCCN)NC(=O)[C@H](C)NC(=O)[C@H](CCCCN)NC(=O)[C@H](CCCNC(=N)N)NC(=O)[C@H](CCCNC(=N)N)NC(=O)[C@@H]1CCCN1C(=O)[C@@H](NC(=O)[C@@H](NC(=O)[C@H](CCCCN)NC(=O)[C@@H](NC(=O)[C@H](CC(=O)O)NC(=O)[C@H](CO)NC(=O)[C@H](CC(N)=O)NC(=O)[C@H](CC(=O)O)NC(=O)[C@H](CCC(N)=O)NC(=O)[C@@H](NC(=O)[C@@H](NC(=O)[C@@H](N)C(C)C)C(C)C)[C@@H](C)CC)[C@@H](C)CC)C(C)C)C(C)C)[C@@H](C)CC)C(N)=O [integrase(249-268)],22
11,CC[C@H](C)[C@H](N)C(=O)N[C@@H](CCCNC(=N)N)C(=O)N[C@@H](Cc1ccc(O)cc1)C(=O)N1CCC[C@H]1C(=O)N[C@@H](CC(C)C)C(=O)N[C@H](C(=O)N[C@@H](Cc1ccccc1)C(=O)NCC(=O)N[C@@H](Cc1c[nH]c2ccccc12)C(=O)N[C@@H](CS)C(=O)N[C@@H](Cc1ccccc1)C(=O)N[C@@H](CCCCN)C(=O)N[C@@H](CC(C)C)C(=O)N[C@H](C(=O)N1CCC[C@H]1C(=O)N[C@H](C(=O)N[C@@H](CC(=O)O)C(=O)N1CCC[C@H]1C(=O)N[C@@H](CCCNC(=N)N)C(=O)N[C@@H](CCC(=O)O)C(=O)N[C@H](C(=O)N[C@@H](CCC(=O)O)C(=O)N[C@@H](CCC(=O)O)C(=O)N[C@@H](C)C(N)=O)C(C)C)C(C)C)C(C)C)[C@@H](C)O [nef(133-156)],18.5
12,CC(C)C[C@H](NC(=O)[C@H](CO)NC(=O)[C@H](CCCNC(=N)N)NC(=O)[C@H](CC(C)C)NC(=O)[C@H](CCC(=O)O)NC(=O)[C@H](CCC(=O)O)NC(=O)[C@@H](N)CO)C(=O)N[C@@H](Cc1ccc(O)cc1)C(=O)N[C@@H](CC(N)=O)C(=O)N[C@H](C(=O)N[C@H](C(=O)N[C@@H](C)C(=O)N[C@H](C(=O)N[C@@H](CC(C)C)C(=O)N[C@@H](Cc1ccc(O)cc1)C(=O)N[C@@H](CS)C(=O)N[C@H](C(=O)N[C@@H](Cc1c[nH]cn1)C(=O)N[C@@H](CCC(N)=O)C(N)=O)C(C)C)[C@@H](C)O)C(C)C)[C@@H](C)O [p17(72-90)],7.23
13,CC[C@H](C)[C@H](NC(=O)[C@H](CC(=O)O)NC(=O)[C@H](CC(C)C)NC(=O)[C@@H](NC(=O)[C@H](CO)NC(=O)[C@@H](NC(=O)[C@@H]1CCCN1C(=O)[C@H](CO)NC(=O)[C@H](Cc1ccc(O)cc1)NC(=O)[C@H](CCSC)NC(=O)[C@H](CCCNC(=N)N)NC(=O)[C@@H](NC(=O)[C@@H](NC(=O)[C@H](CCCCN)NC(=O)[C@H](CC(N)=O)NC(=O)[C@@H](N)CC(C)C)[C@@H](C)CC)C(C)C)C(C)C)[C@@H](C)CC)C(N)=O [p24(138-153)],7.05
14,CC[C@H](C)[C@H](NC(=O)[C@H](C)NC(=O)[C@H](CCCCN)NC(=O)[C@H](CCCCN)NC(=O)CNC(=O)[C@H](CS)NC(=O)[C@@H](NC(=O)[C@H](CCC(=O)O)NC(=O)[C@@H](NC(=O)[C@H](CC(C)C)NC(=O)[C@@H](NC(=O)[C@H](CCC(N)=O)NC(=O)[C@H](CC(=O)O)NC(=O)[C@H](Cc1ccc(O)cc1)NC(=O)[C@H](CCC(N)=O)NC(=O)[C@H](CCCNC(=N)N)NC(=O)[C@@H](NC(=O)[C@H](CCCCN)NC(=O)[C@@H](NC(=O)[C@@H](N)Cc1ccccc1)[C@@H](C)CC)C(C)C)[C@@H](C)CC)[C@@H](C)CC)[C@@H](C)CC)C(=O)NCC(=O)N[C@H](C(=O)N[C@H](C(N)=O)C(C)C)[C@@H](C)O [protease(53-75)],4.43
15,CC[C@H](C)[C@H](NC(=O)[C@H](CCCCN)NC(=O)[C@@H](NC(=O)[C@@H](NC(=O)[C@H](CCCNC(=N)N)NC(=O)[C@@H](NC(=O)[C@H](C)NC(=O)[C@H](CCCCN)NC(=O)[C@H](CC(C)C)NC(=O)[C@H](CC(C)C)NC(=O)[C@H](CCC(=O)O)NC(=O)[C@H](CCC(=O)O)NC(=O)[C@@H](N)CC(=O)O)C(C)C)[C@@H](C)CC)[C@@H](C)CC)C(=O)N[C@@H](CC(C)C)C(=O)N[C@@H](Cc1ccc(O)cc1)C(=O)N[C@@H](CCC(N)=O)C(=O)N[C@@H](CO)C(=O)N[C@@H](CC(N)=O)C(=O)N1CCC[C@H]1C(N)=O [rev(9-27)],1.96
16,CC[C@H](C)[C@H](NC(=O)[C@H](CCSC)NC(=O)[C@@H](NC(=O)[C@H](CCC(N)=O)NC(=O)[C@H](Cc1c[nH]c2ccccc12)NC(=O)[C@H](CCCNC(=N)N)NC(=O)[C@H](CC(N)=O)NC(=O)[C@H](CCC(=O)O)NC(=O)[C@@H](N)CCSC)C(C)C)C(=O)N[C@H](C(=O)N[C@@H](Cc1c[nH]c2ccccc12)C(=O)N[C@@H](CCC(N)=O)C(=O)N[C@H](C(=O)N[C@@H](CC(=O)O)C(=O)N[C@@H](CCCNC(=N)N)C(N)=O)C(C)C)C(C)C [vif(1-15)],6.84
17,CC[C@H](C)[C@H](NC(=O)[C@H](CC(C)C)NC(=O)[C@H](C)NC(=O)[C@@H](NC(=O)[C@H](CC(C)C)NC(=O)[C@H](C)NC(=O)[C@H](CC(C)C)NC(=O)[C@H](Cc1ccc(O)cc1)NC(=O)[C@H](CCC(N)=O)NC(=O)[C@H](CC(C)C)NC(=O)[C@H](CO)NC(=O)CNC(=O)[C@@H](N)C(C)C)[C@@H](C)O)C(=O)N[C@H](C(=O)N1CCC[C@H]1C(=O)N[C@@H](CCCCN)C(=O)N[C@@H](CCCCN)C(N)=O)[C@@H](C)O [vif(142-158)],2.78
